Assay results as given in US11466005B2, “Tricyclic compounds” (JACOBIO PHARMACEUTICALS CO., LTD., priority 2018, dated 2022).

Legend:
BRD4(BD1) = BRD4(BD1) (Homo sapiens (Human), UniProt O60885); assay: BRD4(BD1) biochemical binding assay (HTRF); settings: read-out: BRD4(BD1) IC50, biotinylated H4 derived acetylated peptide
Description: 1. BRD4(BD1) Binding Assays
The BRD4(BD1) biochemical binding assay was performed by Sundia MediTech Co. Ltd. in 384-well white plate (OptiPlate-384, PerkinElmer) using HTRF technology.
Briefly, 20 nL of compounds were transferred to the 384-well plate by Echo® 550 liquid handler (Labcyte, USA), then 5 μL of BRD4(BD1) (Reaction Biology Company, RD-11-157) solution or the assay buffer was added to each well. After incubating at RT for 15 min, 5 μL of the biotinylated H4 derived acetylated peptide (synthesized by GL Biochem (Shanghai) Ltd) and 10 μL of the detection solution (Cisbio Assay) were added to each well. After incubating for 1 h at RT, the HTRF signal was measure at 615 nm and 665 nm using the EnVision Multilabel Plate Reader (PerkinElmer, USA). Results were analyzed with a two-wavelength signal ratio: intensity (665 nm)/intensity (615 nm). The inhibition percentage in the presence of the compound was calculated according to the equation, Percent inhibition=(Max−Signal)/(Max−Min)*100%. Fit the data in GraphPad Prism V5.0 software (San Diego, Calif.) to obtain IC50 values with nonlinear regression analysis using equation, Y=Bottom+(Top−Bottom)/(1+10^((Log IC50−X)×HillSlope), where Y stands for inhibition percentage and X stands for compound concentration.

MV-4-11 cells = assay: MV-4-11 cell proliferation assay (MTS); settings: read-out: MV-4-11 IC50, 3 days culture
Description: 2. Cell Proliferation Assay
MV-4-11 cell proliferation analysis was conducted by the MIS (3-(4,5-dimethylthiazol-2-yl)-5-(3-carboxymethoxyphenyl)-2-(4-sulfophenyl)-2H-tetrazolium, inner salt) assay. Briefly, MV-4-11 cells will be cultured in IMDM (Iscove's Modified Dubecco's Medium) medium supplemented with 10% (v/v) FBS (fetal bovine serum), under the temperature of 37° C., […] and 95% humidity. The cells will be harvested respectively during the logarithmic growth period and counted with hemocytometer. The cell viability is over […] by trypan blue exclusion. Adjust MV-4-11 cells concentrations to 1.2×10^5 cells/mL with complete medium. Add 100 μL cell suspensions to 96-well plates (triplicates for each cell concentration), the final cell densities are 1.2×10^4 cells/well. The next day, dissolve the test compound with DMSO as stock solution. Dispense 5 μL of the stock solution in 1 mL culture media and add 25 μL drug media into 96-well plates. After serially diluting with culture media, the final concentration of the compound will be 0, 0.03, 0.1, 0.3, 1, 3, 10, 30, 100 nM. The plates will be cultured for 3 days, then measured by means of MTS assay. Add PMS (phenazinium methosulfate) solution to MITS solution (1:20) immediately before addition to the culture plate containing cells. […] Record the absorbance at 490 nm using a microplate spectrophotometer (Envision®, PeikinElmer). […]

Structure (SMILES)	IC50 (BRD4(BD1)) [pM]	IC50 (MV-4-11 cells) [pM]
Cc1nnn(C)c1-c1cnc2c3c(c(C(C)(C)O)nn3C)n(C(c3ccncc3F)C3CCOCC3)c2c1 (stereo not shown)	880	5000
[2H]C([2H])([2H])c1nnn(C)c1-c1cnc2c3c(c(C(C)(C)O)nn3C)n([C@H](c3ncccc3F)C3CCOCC3)c2c1	540	830
